Laboratory results reported in patent publication US20130096170A1 (priority 2011, published 2013).
Values joined by “and” are separate entries in the source; they are usually repeats but may differ in a detail not shown here. Identical values can stand only once. Like-named read-outs stand apart in the source and are kept apart here.

Legend:
[1] = test system: initially intubated and mechanically ventilated neonates ≥28 to ≤44 weeks gestational age
[2] = test system: initially intubated and mechanically ventilated pediatric subjects 1 month to <17 years

Cc1cccc([C@H](C)c2cnc[nH]2)c1C [dexmedetomidine]
subjects who received rescue medication for analgesia during infusion ([1]; age Group I, dose level 1 (0.05 μg/kg + 0.05 μg/kg/hr)): 16.7% | subjects who required rescue medication for analgesia ([1]; age Group I, dose level 1 (original 30 patients)): 1 subjects | subjects who received rescue medication for analgesia during infusion ([1]; age Group I, dose level 2 (additional cohort)): 16.7% | subjects who required rescue medication for analgesia ([1]; age Group I, dose levels 1 and 2): 2 subjects | subjects who received rescue medication for analgesia during infusion ([1]; age Group II (term neonates)): 58.3% | subjects who required rescue medication for analgesia ([1]; age Group II (term neonates)): 14 subjects | subjects who received rescue midazolam for sedation during infusion ([1]; age Group II (≥36 to ≤44 wk GA)): 16.7% | mean dose of rescue midazolam ([1]; age Group II subjects given rescue midazolam): 0.22 mg/kg and 0.22 ± 0.26 mg/kg | effectiveness at sedating ([1]; critically ill, intubated, mechanically ventilated premature infants ≥28 to <36 weeks (age Group I)): effective | patients who received rescue morphine ([1]; in vivo): 21% | subjects requiring rescue midazolam or morphine during infusion ([1]; in vivo): None | subjects not requiring rescue midazolam for sedation while intubated (target UMSS 1-3) ([2]; Group 1 low dose, all diagnoses, age groups combined, ASA P1, P2): 13 (44.8) n (%) | subjects not requiring rescue midazolam for sedation while intubated (target UMSS 1-3) ([2]; Group 1 low dose, all diagnoses, age groups combined, ASA P3, P4): 24 (44.4) n (%) | subjects not requiring rescue midazolam for sedation while intubated (target UMSS 1-3) ([2]; Group 1 low dose, all diagnoses, age groups combined, total ASA class): 37 (44.6) n (%) | subjects not requiring rescue midazolam for sedation while intubated (target UMSS 1-3) ([2]; Group 1 low dose, other diagnoses, age groups combined, ASA P1, P2): 12 (57.1) n (%) | subjects not requiring rescue midazolam for sedation while intubated (target UMSS 1-3) ([2]; Group 1 low dose, other diagnoses, age groups combined, ASA P3, P4): 16 (55.2) n (%) | subjects not requiring rescue midazolam for sedation while intubated (target UMSS 1-3) ([2]; Group 1 low dose, other diagnoses, age groups combined, total ASA class): 28 (56.0) n (%) | subjects not requiring rescue midazolam for sedation while intubated (target UMSS 1-3) ([2]; Group 1 low dose, s/p CPB, Age Group II (24 mo-<17 y), ASA P1, P2): 0/2 | subjects not requiring rescue midazolam for sedation while intubated (target UMSS 1-3) ([2]; Group 1 low dose, s/p CPB, age groups combined, ASA P1, P2): 1 (12.5) n (%) | subjects not requiring rescue midazolam for sedation while intubated (target UMSS 1-3) ([2]; Group 1 low dose, s/p CPB, age groups combined, ASA P3, P4): 8 (32.0) n (%) | subjects not requiring rescue midazolam for sedation while intubated (target UMSS 1-3) ([2]; Group 1 low dose, s/p CPB, age groups combined, total ASA class): 9 (27.3) n (%) | subjects not requiring rescue midazolam for sedation while intubated (target UMSS 1-3) ([2]; Group 2 high dose, all diagnoses, age groups combined, ASA P1, P2): 10 (47.6) n (%) | subjects not requiring rescue midazolam for sedation while intubated (target UMSS 1-3) ([2]; Group 2 high dose, all diagnoses, age groups combined, ASA P3, P4): 34 (56.7) n (%) | subjects not requiring rescue midazolam for sedation while intubated (target UMSS 1-3) ([2]; Group 2 high dose, all diagnoses, age groups combined, total ASA class): 44 (54.3) n (%) | subjects not requiring rescue midazolam for sedation while intubated (target UMSS 1-3) ([2]; Group 2 high dose, other diagnoses, age groups combined, ASA P1, P2): 9 (56.3) n (%) | subjects not requiring rescue midazolam for sedation while intubated (target UMSS 1-3) ([2]; Group 2 high dose, other diagnoses, age groups combined, ASA P3, P4): 18 (58.1) n (%) | subjects not requiring rescue midazolam for sedation while intubated (target UMSS 1-3) ([2]; Group 2 high dose, other diagnoses, age groups combined, total ASA class): 27 (57.4) n (%) | subjects not requiring rescue midazolam for sedation while intubated (target UMSS 1-3) ([2]; Group 2 high dose, s/p CPB, Age Group II (24 mo-<17 y), ASA P1, P2): 0/2 | subjects not requiring rescue midazolam for sedation while intubated (target UMSS 1-3) ([2]; Group 2 high dose, s/p CPB, age groups combined, ASA P1, P2): 1 (20.0) n (%) | subjects not requiring rescue midazolam for sedation while intubated (target UMSS 1-3) ([2]; Group 2 high dose, s/p CPB, age groups combined, ASA P3, P4): 16 (55.2) n (%) | subjects not requiring rescue midazolam for sedation while intubated (target UMSS 1-3) ([2]; Group 2 high dose, s/p CPB, age groups combined, total ASA class): 17 (50.0) n (%) | difference (Group 1 − 2) in % of subjects not requiring rescue midazolam ([2]; all diagnoses, Age Group I (1-<24 mo), ASA P1, P2): −5.96 | difference (Group 1 − 2) in % of subjects not requiring rescue midazolam ([2]; all diagnoses, Age Group I (1-<24 mo), ASA P3, P4): −11.55 | difference (Group 1 − 2) in % of subjects not requiring rescue midazolam ([2]; all diagnoses, Age Group I (1-<24 mo), total ASA class): −9.71 | difference (Group 1 − 2) in % of subjects not requiring rescue midazolam ([2]; all diagnoses, Age Group II (24 mo-<17 y), ASA P1, P2): 6.67 | difference (Group 1 − 2) in % of subjects not requiring rescue midazolam ([2]; all diagnoses, Age Group II (24 mo-<17 y), ASA P3, P4): −13.16 | difference (Group 1 − 2) in % of subjects not requiring rescue midazolam ([2]; all diagnoses, Age Group II (24 mo-<17 y), total ASA class): −9.85 | difference (Group 1 − 2) in % of subjects not requiring rescue midazolam ([2]; all diagnoses, age groups combined, ASA P1, P2): −2.79 | difference (Group 1 − 2) in % of subjects not requiring rescue midazolam ([2]; all diagnoses, age groups combined, ASA P3, P4): −12.22 | difference (Group 1 − 2) in % of subjects not requiring rescue midazolam ([2]; all diagnoses, age groups combined, total ASA class): −9.74 | effectiveness at sedating ([2]; critically ill, initially intubated infants and children after cardiac surgery with CPB and non-cardiac surgery): clinically effective | median amount of rescue midazolam per kg ([2]; high dose): 0.179 mg/kg | median time from start of infusion to first dose of rescue medication ([2]; high dose): 2.0 h | median time to successful extubation ([2]; high dose): 20.5 h | subjects who required rescue midazolam for sedation ([2]; high dose, age groups combined (37/81)): 45.7% | subjects not requiring rescue midazolam, number and percent of column N ([2]; high dose, other Dx, Age Group I (1-<24 mo), ASA P1, P2, N = 16): 7 (43.8) n (%) | subjects not requiring rescue midazolam, number and percent of column N ([2]; high dose, other Dx, Age Group I (1-<24 mo), ASA P3, P4, N = 31): 13 (41.9) n (%) | subjects not requiring rescue midazolam, number and percent of column N ([2]; high dose, other Dx, Age Group I (1-<24 mo), total ASA class, N = 47): 20 (42.6) n (%) | subjects not requiring rescue midazolam, number and percent of column N ([2]; high dose, other Dx, Age Group II (24 mo-<17 y), ASA P1, P2, N = 16): 2 (12.5) n (%) | subjects not requiring rescue midazolam, number and percent of column N ([2]; high dose, other Dx, Age Group II (24 mo-<17 y), ASA P3, P4, N = 31): 5 (16.1) n (%) | subjects not requiring rescue midazolam, number and percent of column N ([2]; high dose, other Dx, Age Group II (24 mo-<17 y), total ASA class, N = 47): 7 (14.9) n (%) | subjects not requiring rescue midazolam, number and percent of column N ([2]; high dose, s/p CPB, Age Group I (1-<24 mo), ASA P1, P2, N = 5): 1 (20.0) n (%) | subjects not requiring rescue midazolam, number and percent of column N ([2]; high dose, s/p CPB, Age Group I (1-<24 mo), ASA P3, P4, N = 29): 9 (31.0) n (%) | subjects not requiring rescue midazolam, number and percent of column N ([2]; high dose, s/p CPB, Age Group I (1-<24 mo), total ASA class, N = 34): 10 (29.4) n (%) | subjects not requiring rescue midazolam, number and percent of column N ([2]; high dose, s/p CPB, Age Group II (24 mo-<17 y), ASA P1, P2, N = 5): 0 n (%) | subjects not requiring rescue midazolam, number and percent of column N ([2]; high dose, s/p CPB, Age Group II (24 mo-<17 y), ASA P3, P4, N = 29): 7 (24.1) n (%) | subjects not requiring rescue midazolam, number and percent of column N ([2]; high dose, s/p CPB, Age Group II (24 mo-<17 y), total ASA class, N = 34): 7 (20.6) n (%) | median total amount of rescue midazolam while intubated ([2]; high dose, subjects that required rescue): 2.00 mg | subjects not requiring rescue midazolam, number and percent of column N ([2]; high dose, total, Age Group I (1-<24 mo), ASA P1, P2, N = 21): 8 (38.1) n (%) | subjects not requiring rescue midazolam, number and percent of column N ([2]; high dose, total, Age Group I (1-<24 mo), ASA P3, P4, N = 60): 22 (36.7) n (%) | subjects not requiring rescue midazolam, number and percent of column N ([2]; high dose, total, Age Group I (1-<24 mo), total ASA class, N = 81): 30 (37.0) n (%) | subjects not requiring rescue midazolam, number and percent of column N ([2]; high dose, total, Age Group II (24 mo-<17 y), ASA P1, P2, N = 21): 2 (9.5) n (%) | subjects not requiring rescue midazolam, number and percent of column N ([2]; high dose, total, Age Group II (24 mo-<17 y), ASA P3, P4, N = 60): 12 (20.0) n (%) | subjects not requiring rescue midazolam, number and percent of column N ([2]; high dose, total, Age Group II (24 mo-<17 y), total ASA class, N = 81): 14 (17.3) n (%) | median amount of rescue morphine per kg ([2]; human, in vivo): 0.20 mg/kg and 0.17 mg/kg | median total amount of rescue morphine ([2]; human, in vivo): 1.80 mg and 1.63 mg | subjects who received rescue morphine for analgesia while intubated ([2]; human, in vivo): 42.2% and 39.5% | median amount of rescue midazolam per kg ([2]; low dose): 0.266 mg/kg | median time from start of infusion to first dose of rescue medication ([2]; low dose): 1.6 h | median time to successful extubation ([2]; low dose): 23.8 h | subjects who required rescue midazolam for sedation ([2]; low dose, age groups combined (46/83)): 55.4% | subjects not requiring rescue midazolam, number and percent of column N ([2]; low dose, other Dx, Age Group I (1-<24 mo), ASA P1, P2, N = 21): 8 (38.1) n (%) | subjects not requiring rescue midazolam, number and percent of column N ([2]; low dose, other Dx, Age Group I (1-<24 mo), ASA P3, P4, N = 29): 12 (41.4) n (%) | subjects not requiring rescue midazolam, number and percent of column N ([2]; low dose, other Dx, Age Group I (1-<24 mo), total ASA class, N = 50): 20 (40.0) n (%) | subjects not requiring rescue midazolam, number and percent of column N ([2]; low dose, other Dx, Age Group II (24 mo-<17 y), ASA P1, P2, N = 21): 4 (19.0) n (%) | subjects not requiring rescue midazolam, number and percent of column N ([2]; low dose, other Dx, Age Group II (24 mo-<17 y), ASA P3, P4, N = 29): 4 (13.8) n (%) | subjects not requiring rescue midazolam, number and percent of column N ([2]; low dose, other Dx, Age Group II (24 mo-<17 y), total ASA class, N = 50): 8 (16.0) n (%) | subjects not requiring rescue midazolam, number and percent of column N ([2]; low dose, s/p CPB, Age Group I (1-<24 mo), ASA P1, P2, N = 8): 1 (12.5) n (%) | subjects not requiring rescue midazolam, number and percent of column N ([2]; low dose, s/p CPB, Age Group I (1-<24 mo), ASA P3, P4, N = 25): 4 (16.0) n (%) | subjects not requiring rescue midazolam, number and percent of column N ([2]; low dose, s/p CPB, Age Group I (1-<24 mo), total ASA class, N = 33): 5 (15.2) n (%) | subjects not requiring rescue midazolam, number and percent of column N ([2]; low dose, s/p CPB, Age Group II (24 mo-<17 y), ASA P1, P2, N = 8): 0 n (%)
